Here are results for one substance from patent US20120035183A1, “Cancer Treatment Method” (priority 2008, published 2012).

The subject of the assay is LL1-BT-474-J4 (J4) breast cell clone. The assay can be described thus: CellTiter-Glo cell growth inhibition assay, LL1-BT-474-J4. It is filed as cell-based. The source says:
Combination Index values>1.10 indicated antagonism.

Turning to trastuzumab: Herceptin® (trastuzumab), the “sensitivity of the cell line to the agent (in words)” value is “resistant”.
